# Yeast mating assay 1: variants of the scFv Ab-14

The measurements come from Engelhart et al. 2022 (doi:10.1038/s41597-022-01779-4) through the FLAb antibody collection.

The target is the same throughout: PDVDLGDISGINAS, from the HR2 region of SARS-CoV-2 spike.

Parent scFv Ab-14: VH joined to VL by a 15-residue (Gly4Ser)3 linker. Changes lie in the heavy chain CDRs alone.
VH: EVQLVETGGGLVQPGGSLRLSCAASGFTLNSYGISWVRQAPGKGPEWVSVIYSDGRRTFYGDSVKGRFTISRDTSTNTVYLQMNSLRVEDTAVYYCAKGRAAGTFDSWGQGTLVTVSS
VL: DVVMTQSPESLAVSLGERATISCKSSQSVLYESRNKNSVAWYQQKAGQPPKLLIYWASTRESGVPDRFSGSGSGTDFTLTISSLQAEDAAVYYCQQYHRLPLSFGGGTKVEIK

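Variants in AAYL49 differ from the parent at up to three CDR positions; double and triple changes were sampled at random. In AlphaSeq, yeast of one mating type display the scFv and yeast of the other type display the target. Pairs that bind mate more often; barcode pairs of the diploids are counted by sequencing. A regression on co-assayed BCL2-family reference pairs converts the normalised counts of each replicate to an apparent Kd. There are three technical replicates.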

The parent's heavy chain CDRs are GFTLNSYGIS, VIYSDGRRTFYGDSVK, GRAAGTFDS; each variant's own CDRs replace them letter for letter.
Values are log10 of the apparent Kd in nM; lower means stronger binding.
A mean of the replicates is given; it leaves out those without a signal.
"nd" means that the variant was in the library but no mating with the target was seen in any replicate; the authors take this as a sign of poor binding, and no number exists.

CDR-H1 | CDR-H2 | CDR-H3 | mean, log10 nM | seen in | empty controls
MITINSYGIS | VIYSDGRRTFYGDSVK | GRAAGTFDS | 3.13 | 1 of 3 | 1 of 9
GFTPNSGGIS | VIYSDGPRTFYGDSVK | GRAAGTFDS | 4.39 | 3 of 3 | 4 of 9
GFTLLSYGIS | VIYDDGRRTFYGDSVK | GRAAGTFIS | nd | 0 of 3 | 2 of 9
GFTLNSYGIS | VIYSDGIRTFYGDSLK | GRAAGTFDS | 2.69 | 3 of 3 | 1 of 9
GFHLNSYGIS | EIYSDGRRVFYGDSVK | GRAAGTFDS | 5.04 | 2 of 3 | 2 of 9
GFTLNSYGIS | VVYSDGRRTFYGDSVK | GTAAGTFDS | 1.49 | 3 of 3 | 1 of 9
GFTLNEYGIS | VDYSDGRRTFYGDSVK | GRIAGTFDS | 1.58 | 3 of 3 | 1 of 9
GHTLNSYGIS | VIYSFGRRTFYGDIVK | GRAAGTFDS | 4.19 | 1 of 3 | 0 of 9
GFFLNSYGIS | VIYSDGRRTFKGDSVK | GRAALTFDS | nd | 0 of 3 | 3 of 9
GFTLNSYGIS | VIYSDGRRNFYGDSVK | GRAAGVGDS | nd | 0 of 3 | 0 of 9
GFTLNSYGIS | VIYSDGKRTFRGCSVK | GRAAGTFDS | nd | 0 of 3 | 2 of 9
GFTLKSYGIS | VIYSDGRRTFYGDSVK | GRAAGTFDF | 1.39 | 3 of 3 | 1 of 9
GFTLNSYGIS | VQYSDGRITFYGRSVK | GRAAGTFDS | nd | 0 of 3 | 2 of 9
GFTLNSGGIS | VIYSDGRRTFYGDSVK | GRAYGTFNS | nd | 0 of 3 | 2 of 9
GFTLNSYGIS | VIYSDGRRTFYQDSVK | GREAGTFDD | 0.01 | 3 of 3 | 0 of 9
GFTSNSYGIS | VIYEDGRVTFYGDSVK | GRAAGTFDS | nd | 0 of 3 | 1 of 9
GDTLNSYGIS | VIYSDGRATFYGDSVK | GRAAGTVDS | 3.48 | 1 of 3 | 2 of 9
GFTLNSYGIS | VIYSDGRRTTYGDSGK | GRNAGTFDS | 1.92 | 3 of 3 | 3 of 9
GFTLNSYGIS | VIQSDGRRTAYGYSVK | GRAAGTFDS | nd | 0 of 3 | 5 of 9
GFTLNSYGIS | VIYSDGRRTFYGDSVK | GRKATTFDD | nd | 0 of 3 | 0 of 9
YFTLNHYGIS | VMYSDGRRTFYGDSVK | GRAAGTFDS | 2.69 | 1 of 3 | 0 of 9
GFTLNSYGIS | VIYSDGRRTFYGDSVK | GRAAGRYKS | nd | 0 of 3 | 0 of 9
GFTLNSYGIS | EIYSDGRRTFGGDSVK | GRAANTFDS | 5.09 | 1 of 3 | 0 of 9
LFTLNSCGIS | VIYSDGERTFYGDSVK | GRAAGTFDS | nd | 0 of 3 | 1 of 9
GFTLNSYGIS | VIYSDGSRTFYGDSVK | GRAAGTDDS | 1.66 | 3 of 3 | 1 of 9
GFTLNSYGIE | VIYLDGRRTFYGDSQK | GRAAGTFDS | 4.58 | 3 of 3 | 6 of 9
GFTNNSYGIS | VIYSDGRRTFYPDSVK | GRIAGTFDS | 3.29 | 2 of 3 | 1 of 9
GFTLQSYGIS | VIYSDGRRTFYLDSVK | GRAAGTFDS | 1.19 | 3 of 3 | 0 of 9
GLTLNSYGIS | VIYSDGRRHFYGDLVK | GRAAGTFDS | nd | 0 of 3 | 0 of 9
GFTLNAYGRS | VIYSDGRRTFYGDSVK | GRAAGTFDS | nd | 0 of 3 | 0 of 9
GFTLNSYGIS | VIYSDGRATFYGDSVK | YRAWGTFDS | nd | 0 of 3 | 1 of 9
GFTLNSIGIS | VIYSDGRRTIYGDSVK | GRAAGTFDK | 4.31 | 1 of 3 | 2 of 9
GFTLNSYGIS | VIYSDGRRTFYGDSVK | GRACATIDS | nd | 0 of 3 | 0 of 9
GFTLNSYGTS | VIYSDDRRTFYTDSVK | GRAAGTFDS | 4.94 | 3 of 3 | 4 of 9
GFVLNSYGVS | VIYSDGRRTFYMDSVK | GRAAGTFDS | 2.74 | 3 of 3 | 1 of 9
GSTLNSYGIS | VIYSDGRRTFYGDSVK | DRAAGKFDS | 1.22 | 3 of 3 | 4 of 9
GFTLNSYGIS | VIYDDGYRTFIGDSVK | GRAAGTFDS | nd | 0 of 3 | 1 of 9
GFTDNSYGAS | VIYSDGRRTFYWDSVK | GRAAGTFDS | 3.29 | 1 of 3 | 1 of 9
GFTLNSEGIS | VIGSDGRRTFYGDSVK | GRAAGTFPS | 5.31 | 2 of 3 | 5 of 9
GFTLNMYGIS | VDYSDGRRTFYGDSQK | GRAAGTFDS | 3.29 | 1 of 3 | 0 of 9
GFTLNSYGIS | VIYSHGRRTFYGDSVK | GRAAGDHDS | nd | 0 of 3 | 2 of 9
GFTLNSYGIS | VIYSDKRETFYWDSVK | GRAAGTFDS | 5.47 | 2 of 3 | 3 of 9
GFTGNSYGIS | VCYSDGRRTFWGDSVK | GRAAGTFDS | 4.78 | 1 of 3 | 3 of 9
GFTLNSYFID | VIYSDGRRTFYGDSVK | GRAAGTRDS | nd | 0 of 3 | 1 of 9
GFTLNSEGIS | VIYSDGRRTFYGHSVK | GRAAATFDS | 3.14 | 3 of 3 | 1 of 9
GFTLISYGIS | VIYCDGRRTFYGDLVK | GRAAGTFDS | nd | 0 of 3 | 0 of 9
GFTLNHYGIS | VIYSDGRRDFYGDSVK | GRAAGHFDS | 1.38 | 3 of 3 | 2 of 9
GFTLNSYGIS | VIYSDGRRCFYGDSVM | GRAAGCFDS | 5.06 | 1 of 3 | 2 of 9

For reference, the parent read 0.65 as the reference entry and 4.11 (one replicate of three) as a member of this library.
Nonspecific signal, from three strains lacking the peptide, appeared in 15% of pairings of library AAYL49, centred on 4.06 (5% of these signals below 2.83); values are not corrected for it. The control count says in how many pairings with the empty strains this scFv gave a signal.